The record followed here is ChEMBL document CHEMBL2029289, “Structure-activity relationship study of a CXC chemokine receptor type 4 antagonist, FC131, using a series of alkene dipeptide isosteres” (J Med Chem, 2012).

Protein sequences, listed by entry. Tags and fused reporters are not part of them.
UniProt P61073, whole entry: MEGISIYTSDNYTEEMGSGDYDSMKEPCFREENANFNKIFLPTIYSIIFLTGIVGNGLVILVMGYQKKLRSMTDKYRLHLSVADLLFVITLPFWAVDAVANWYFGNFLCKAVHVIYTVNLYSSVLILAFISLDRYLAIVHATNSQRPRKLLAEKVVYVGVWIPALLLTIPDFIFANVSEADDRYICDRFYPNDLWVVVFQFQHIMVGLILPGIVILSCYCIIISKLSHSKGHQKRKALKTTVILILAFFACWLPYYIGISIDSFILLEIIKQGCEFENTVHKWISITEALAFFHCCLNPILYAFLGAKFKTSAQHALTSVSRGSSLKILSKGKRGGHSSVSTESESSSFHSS

The experiment has as its target C-X-C chemokine receptor type 4 (Homo sapiens, UniProt P61073). Briefly: Displacement of [125I]SDF-1alpha from CXCR4 expressed in HEK293 cell membrane after 1 hr. The format is cell membranes.

As for `N=C(N)NCCC[C@@H]1NC(=O)[C@H](CCCNC(=N)N)NC(=O)[C@@H](Cc2ccc(O)cc2)NC(=O)CNC(=O)[C@H](Cc2ccc3ccccc3c2)NC1=O`, the IC50 – broadly, the concentration at which inhibition is half-maximal – worked out at 0.084 µM.
